pKi: −log10 of the molar value. “And” between values parts separate entries of the source, which are not always exact repeats. Equal values may be shown once.
Molecular target: H3R membranes (H3R8-expressing HEK293 cell line) (Homo sapiens, UniProt Q9Y5N1)
Assay: [35S]GTPγS binding assay (antagonist inhibition of agonist-stimulated binding)
Settings: inhibition of [35S]GTPγS binding to H3R membranes in presence of agonist R(-) alpha methylhistamine

Chains of the proteins cited; added tags and fusions are not shown. Lines headed by an entry give the natural chain unless they say otherwise; changes in a name come on top.
UniProt Q9Y5N1, whole entry: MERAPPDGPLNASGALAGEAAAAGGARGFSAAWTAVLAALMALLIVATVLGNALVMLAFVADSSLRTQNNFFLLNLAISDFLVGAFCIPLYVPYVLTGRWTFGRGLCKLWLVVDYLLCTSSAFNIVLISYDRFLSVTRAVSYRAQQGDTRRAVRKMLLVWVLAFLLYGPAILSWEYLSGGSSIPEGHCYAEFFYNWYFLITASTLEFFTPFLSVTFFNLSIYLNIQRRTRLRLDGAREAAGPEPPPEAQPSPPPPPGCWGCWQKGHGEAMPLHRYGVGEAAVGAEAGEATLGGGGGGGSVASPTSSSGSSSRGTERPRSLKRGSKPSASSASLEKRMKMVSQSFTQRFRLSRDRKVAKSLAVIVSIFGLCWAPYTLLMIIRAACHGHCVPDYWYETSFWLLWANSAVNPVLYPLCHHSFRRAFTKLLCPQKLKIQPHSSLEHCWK

pKi: 8.83 and 9.02
Structure (SMILES): CCN(CC)CCCOc1ccc(C(C)NCCN(C)C)cc1 (stereo not shown)

Reference: patent publication US7314937B2, “Non-imidazole aryl alkylamines compounds as histamine H3 receptor antagonists, preparation and therapeutic uses” (Eli Lilly and Company, priority 2002, dated 2008)
